Laboratory results published in article PMC3914206.

Chains of the proteins cited; added tags and fusions are not shown. Lines headed by an entry give the natural chain unless they say otherwise; changes in a name come on top. Residues count along the entry.
UniProt O14733: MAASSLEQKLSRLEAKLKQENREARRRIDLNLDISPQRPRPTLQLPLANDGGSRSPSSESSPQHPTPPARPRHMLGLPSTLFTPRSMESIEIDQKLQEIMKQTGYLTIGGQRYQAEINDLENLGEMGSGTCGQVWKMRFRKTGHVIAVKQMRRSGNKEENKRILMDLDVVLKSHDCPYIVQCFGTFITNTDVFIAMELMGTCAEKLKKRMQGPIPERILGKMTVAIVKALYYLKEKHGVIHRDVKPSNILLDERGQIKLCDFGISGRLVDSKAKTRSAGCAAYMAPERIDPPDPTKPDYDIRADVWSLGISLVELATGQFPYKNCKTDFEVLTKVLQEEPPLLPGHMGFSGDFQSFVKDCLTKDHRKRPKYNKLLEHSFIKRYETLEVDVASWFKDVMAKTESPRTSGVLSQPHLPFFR
UniProt O15264: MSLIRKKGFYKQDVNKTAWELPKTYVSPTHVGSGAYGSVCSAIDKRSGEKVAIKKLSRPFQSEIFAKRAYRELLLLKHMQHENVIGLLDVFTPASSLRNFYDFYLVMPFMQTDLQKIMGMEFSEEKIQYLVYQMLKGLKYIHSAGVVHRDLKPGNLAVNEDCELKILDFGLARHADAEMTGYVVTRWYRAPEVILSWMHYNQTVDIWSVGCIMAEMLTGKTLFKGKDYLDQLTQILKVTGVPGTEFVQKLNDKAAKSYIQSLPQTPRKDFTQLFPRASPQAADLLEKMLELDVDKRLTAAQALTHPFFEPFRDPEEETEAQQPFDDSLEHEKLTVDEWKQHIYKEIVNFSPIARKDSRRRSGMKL
UniProt P15056, whole entry: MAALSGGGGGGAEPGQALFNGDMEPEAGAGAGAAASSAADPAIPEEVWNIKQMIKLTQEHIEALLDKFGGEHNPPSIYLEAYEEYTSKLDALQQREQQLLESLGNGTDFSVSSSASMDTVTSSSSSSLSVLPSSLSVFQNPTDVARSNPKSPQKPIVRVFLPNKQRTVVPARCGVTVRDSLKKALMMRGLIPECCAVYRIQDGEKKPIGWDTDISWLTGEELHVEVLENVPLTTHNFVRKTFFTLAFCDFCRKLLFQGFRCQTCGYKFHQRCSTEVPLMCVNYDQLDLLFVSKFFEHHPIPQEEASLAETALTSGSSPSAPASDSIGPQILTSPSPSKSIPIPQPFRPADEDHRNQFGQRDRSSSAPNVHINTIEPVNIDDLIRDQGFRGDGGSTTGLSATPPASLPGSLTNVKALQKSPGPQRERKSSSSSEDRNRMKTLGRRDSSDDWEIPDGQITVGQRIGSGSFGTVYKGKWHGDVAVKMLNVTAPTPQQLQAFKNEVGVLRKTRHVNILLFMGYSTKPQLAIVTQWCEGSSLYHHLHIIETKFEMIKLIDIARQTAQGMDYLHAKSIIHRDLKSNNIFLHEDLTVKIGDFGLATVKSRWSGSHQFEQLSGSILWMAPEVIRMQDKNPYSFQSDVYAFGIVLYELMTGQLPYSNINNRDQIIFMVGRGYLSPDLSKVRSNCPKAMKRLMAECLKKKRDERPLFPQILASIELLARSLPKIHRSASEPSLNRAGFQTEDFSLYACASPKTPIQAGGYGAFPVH
UniProt P21860, 20-1342: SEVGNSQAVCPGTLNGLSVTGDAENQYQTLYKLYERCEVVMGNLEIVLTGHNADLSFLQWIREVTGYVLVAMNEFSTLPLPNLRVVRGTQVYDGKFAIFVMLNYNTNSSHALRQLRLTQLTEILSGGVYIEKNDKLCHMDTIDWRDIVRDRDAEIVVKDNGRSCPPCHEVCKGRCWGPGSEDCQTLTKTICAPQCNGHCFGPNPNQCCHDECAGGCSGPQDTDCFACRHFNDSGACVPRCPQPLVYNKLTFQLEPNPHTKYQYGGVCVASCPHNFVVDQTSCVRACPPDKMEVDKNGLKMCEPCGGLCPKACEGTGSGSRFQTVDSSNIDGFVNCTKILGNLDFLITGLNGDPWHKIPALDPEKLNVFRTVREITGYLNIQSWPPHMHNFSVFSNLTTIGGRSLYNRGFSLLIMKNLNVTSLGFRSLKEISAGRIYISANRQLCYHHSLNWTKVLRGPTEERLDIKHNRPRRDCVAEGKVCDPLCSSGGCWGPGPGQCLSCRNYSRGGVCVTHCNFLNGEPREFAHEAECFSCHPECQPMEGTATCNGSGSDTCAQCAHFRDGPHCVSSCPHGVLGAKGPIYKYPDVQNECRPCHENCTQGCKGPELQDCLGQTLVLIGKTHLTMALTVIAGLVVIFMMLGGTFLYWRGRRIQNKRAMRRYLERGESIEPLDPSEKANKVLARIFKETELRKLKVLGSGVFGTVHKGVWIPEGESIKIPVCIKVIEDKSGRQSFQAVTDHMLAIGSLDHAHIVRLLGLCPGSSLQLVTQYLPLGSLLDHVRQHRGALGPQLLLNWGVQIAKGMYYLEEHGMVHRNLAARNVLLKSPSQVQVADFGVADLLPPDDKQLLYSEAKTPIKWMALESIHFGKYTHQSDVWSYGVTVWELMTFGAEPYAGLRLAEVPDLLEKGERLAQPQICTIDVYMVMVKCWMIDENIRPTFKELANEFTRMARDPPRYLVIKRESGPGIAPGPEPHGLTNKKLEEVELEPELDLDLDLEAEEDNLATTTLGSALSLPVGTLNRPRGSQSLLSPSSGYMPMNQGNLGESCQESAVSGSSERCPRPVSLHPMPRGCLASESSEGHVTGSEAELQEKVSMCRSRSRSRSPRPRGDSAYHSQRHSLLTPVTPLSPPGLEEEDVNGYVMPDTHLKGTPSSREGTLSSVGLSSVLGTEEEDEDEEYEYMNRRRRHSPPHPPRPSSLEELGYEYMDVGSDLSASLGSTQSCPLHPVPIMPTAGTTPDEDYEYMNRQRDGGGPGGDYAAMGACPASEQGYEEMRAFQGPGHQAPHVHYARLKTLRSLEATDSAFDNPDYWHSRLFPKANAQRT
UniProt P32298, whole entry: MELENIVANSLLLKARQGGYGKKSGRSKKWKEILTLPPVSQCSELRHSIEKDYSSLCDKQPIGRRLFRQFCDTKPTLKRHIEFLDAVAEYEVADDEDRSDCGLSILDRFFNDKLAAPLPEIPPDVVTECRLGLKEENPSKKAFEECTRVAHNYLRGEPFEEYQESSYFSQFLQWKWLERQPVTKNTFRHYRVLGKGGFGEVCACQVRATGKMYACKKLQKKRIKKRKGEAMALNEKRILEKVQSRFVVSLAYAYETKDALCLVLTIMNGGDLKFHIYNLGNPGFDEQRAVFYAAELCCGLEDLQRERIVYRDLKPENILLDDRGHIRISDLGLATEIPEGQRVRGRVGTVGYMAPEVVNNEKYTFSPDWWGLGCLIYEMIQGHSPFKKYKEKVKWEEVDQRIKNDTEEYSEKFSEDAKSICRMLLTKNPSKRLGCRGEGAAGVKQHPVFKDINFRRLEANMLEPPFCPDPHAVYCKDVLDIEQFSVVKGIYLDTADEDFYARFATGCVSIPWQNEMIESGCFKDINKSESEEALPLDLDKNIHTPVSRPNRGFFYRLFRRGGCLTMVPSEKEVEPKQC
UniProt Q13131: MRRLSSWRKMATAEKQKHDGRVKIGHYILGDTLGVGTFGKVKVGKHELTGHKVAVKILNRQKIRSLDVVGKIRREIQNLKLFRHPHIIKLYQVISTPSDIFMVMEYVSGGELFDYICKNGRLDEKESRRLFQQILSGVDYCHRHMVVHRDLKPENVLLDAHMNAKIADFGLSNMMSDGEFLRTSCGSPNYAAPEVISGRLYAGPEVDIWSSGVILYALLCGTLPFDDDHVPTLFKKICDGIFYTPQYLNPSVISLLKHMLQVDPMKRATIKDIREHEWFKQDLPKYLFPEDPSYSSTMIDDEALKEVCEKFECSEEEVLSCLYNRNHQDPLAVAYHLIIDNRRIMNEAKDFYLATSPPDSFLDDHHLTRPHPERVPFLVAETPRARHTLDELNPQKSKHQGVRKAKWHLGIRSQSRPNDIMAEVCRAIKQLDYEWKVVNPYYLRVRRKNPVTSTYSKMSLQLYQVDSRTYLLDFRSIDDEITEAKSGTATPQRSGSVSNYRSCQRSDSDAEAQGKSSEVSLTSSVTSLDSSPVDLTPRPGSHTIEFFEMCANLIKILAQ
UniProt Q13233: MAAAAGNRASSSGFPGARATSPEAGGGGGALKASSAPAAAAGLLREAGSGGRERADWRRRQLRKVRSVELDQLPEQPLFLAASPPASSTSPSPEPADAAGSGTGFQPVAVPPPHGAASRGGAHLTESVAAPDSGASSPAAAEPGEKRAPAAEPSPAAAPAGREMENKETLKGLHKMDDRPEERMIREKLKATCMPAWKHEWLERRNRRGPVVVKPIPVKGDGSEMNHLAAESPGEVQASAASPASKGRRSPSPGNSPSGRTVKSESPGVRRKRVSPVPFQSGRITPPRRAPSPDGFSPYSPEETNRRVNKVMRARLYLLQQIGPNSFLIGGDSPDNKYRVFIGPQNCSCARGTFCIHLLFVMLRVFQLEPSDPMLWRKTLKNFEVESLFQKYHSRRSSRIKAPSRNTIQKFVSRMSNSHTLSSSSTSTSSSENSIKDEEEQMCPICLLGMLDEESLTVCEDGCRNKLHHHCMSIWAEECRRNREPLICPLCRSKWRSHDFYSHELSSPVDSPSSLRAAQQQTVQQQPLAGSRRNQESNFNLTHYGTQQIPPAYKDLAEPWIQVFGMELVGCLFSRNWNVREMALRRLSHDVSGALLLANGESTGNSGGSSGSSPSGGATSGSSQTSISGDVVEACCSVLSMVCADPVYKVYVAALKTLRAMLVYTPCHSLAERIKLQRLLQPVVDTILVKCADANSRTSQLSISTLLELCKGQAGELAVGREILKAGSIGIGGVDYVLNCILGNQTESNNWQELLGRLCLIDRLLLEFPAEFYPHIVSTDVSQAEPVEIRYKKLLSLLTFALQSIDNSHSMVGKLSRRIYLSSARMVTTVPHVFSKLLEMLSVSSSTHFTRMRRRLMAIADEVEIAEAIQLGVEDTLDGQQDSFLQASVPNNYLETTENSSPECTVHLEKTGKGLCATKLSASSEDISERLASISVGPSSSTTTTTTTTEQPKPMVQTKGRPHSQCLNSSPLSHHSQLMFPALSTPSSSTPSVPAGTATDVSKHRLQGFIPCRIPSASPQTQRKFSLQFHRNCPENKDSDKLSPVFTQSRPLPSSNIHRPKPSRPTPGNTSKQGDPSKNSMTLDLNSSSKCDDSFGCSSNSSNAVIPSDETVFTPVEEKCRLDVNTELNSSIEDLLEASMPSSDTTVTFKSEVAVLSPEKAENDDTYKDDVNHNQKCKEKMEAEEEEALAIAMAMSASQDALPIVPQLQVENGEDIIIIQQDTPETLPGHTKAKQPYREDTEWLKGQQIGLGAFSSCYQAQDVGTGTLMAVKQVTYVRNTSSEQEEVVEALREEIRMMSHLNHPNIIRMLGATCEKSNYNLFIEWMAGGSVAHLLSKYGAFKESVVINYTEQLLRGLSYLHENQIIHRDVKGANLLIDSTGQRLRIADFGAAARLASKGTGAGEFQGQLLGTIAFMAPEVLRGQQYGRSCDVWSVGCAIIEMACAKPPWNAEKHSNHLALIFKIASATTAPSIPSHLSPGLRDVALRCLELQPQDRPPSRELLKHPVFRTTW
UniProt Q8N752: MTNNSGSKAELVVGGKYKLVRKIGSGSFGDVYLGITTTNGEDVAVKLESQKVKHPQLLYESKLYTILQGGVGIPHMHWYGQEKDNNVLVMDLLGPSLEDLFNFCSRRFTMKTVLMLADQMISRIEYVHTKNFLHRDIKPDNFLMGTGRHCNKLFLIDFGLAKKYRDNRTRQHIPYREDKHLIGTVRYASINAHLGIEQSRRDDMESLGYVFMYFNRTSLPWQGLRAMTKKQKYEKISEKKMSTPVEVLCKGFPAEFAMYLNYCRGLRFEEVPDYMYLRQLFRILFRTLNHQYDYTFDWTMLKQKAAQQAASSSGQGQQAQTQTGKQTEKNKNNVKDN
UniProt Q8NG66: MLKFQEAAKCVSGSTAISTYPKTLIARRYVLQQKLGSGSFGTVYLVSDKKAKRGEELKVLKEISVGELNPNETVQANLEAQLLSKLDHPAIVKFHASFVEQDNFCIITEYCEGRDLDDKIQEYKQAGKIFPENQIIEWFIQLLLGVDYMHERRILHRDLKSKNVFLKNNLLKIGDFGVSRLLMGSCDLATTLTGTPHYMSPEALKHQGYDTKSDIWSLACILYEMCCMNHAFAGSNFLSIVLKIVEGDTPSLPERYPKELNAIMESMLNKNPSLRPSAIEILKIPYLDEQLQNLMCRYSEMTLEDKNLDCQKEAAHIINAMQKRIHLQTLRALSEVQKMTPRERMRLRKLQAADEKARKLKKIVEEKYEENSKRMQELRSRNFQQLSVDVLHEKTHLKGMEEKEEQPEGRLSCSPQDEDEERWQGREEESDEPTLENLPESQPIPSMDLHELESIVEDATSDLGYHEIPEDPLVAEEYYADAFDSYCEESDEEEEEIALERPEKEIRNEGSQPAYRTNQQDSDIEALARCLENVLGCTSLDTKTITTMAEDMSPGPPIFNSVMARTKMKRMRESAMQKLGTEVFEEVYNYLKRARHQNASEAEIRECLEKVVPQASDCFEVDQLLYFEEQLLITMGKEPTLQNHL

Assays:
Type in all cases: binding
Conditions in all cases: Compound Concentration 10 µM
[1] = target: T1, panel of 442 kinases (Homo sapiens, UniProt O14733)
T1 construct: purchased KINOMEscan
From the text: (§1) We assessed the selectivity of members of this scaffold using the KINOMEscan methodology across a near comprehensive panel of 442 kinases [[18,27]].

[2] = target: T2, panel of 442 kinases (Homo sapiens, UniProt O15264)
T2 construct: purchased KINOMEscan
From the text: as §1

[3] = target: T3, panel of 442 kinases (Homo sapiens, UniProt O43293)
T3 construct: purchased KINOMEscan
From the text: as §1

[4] = target: T4, panel of 442 kinases (Homo sapiens, UniProt O60674)
T4 construct: purchased KINOMEscan
From the text: as §1

[5] = target: T5, panel of 442 kinases (Homo sapiens, UniProt O75676)
T5 construct: purchased KINOMEscan
From the text: as §1

[6] = target: T6, panel of 442 kinases (Homo sapiens, UniProt O95382)
T6 construct: purchased KINOMEscan
From the text: as §1

[7] = target: T7, panel of 442 kinases (Homo sapiens, UniProt P00519, E255K)
T7 construct: purchased KINOMEscan
From the text: as §1

[8] = target: T8, panel of 442 kinases (Homo sapiens, UniProt P07949)
T8 construct: purchased KINOMEscan
From the text: as §1

[9] = target: T9, panel of 442 kinases (Homo sapiens, UniProt P10721, D816H)
T9 construct: purchased KINOMEscan
From the text: as §1

[10] = target: T10, panel of 442 kinases (Homo sapiens, UniProt P10721, V559D/V654A)
T10 construct: purchased KINOMEscan
From the text: as §1

[11] = target: T11, panel of 442 kinases (Homo sapiens, UniProt P15056)
T11 construct: purchased KINOMEscan
From the text: as §1

[12] = target: T12, panel of 442 kinases (Homo sapiens, UniProt P21860)
T12 construct: purchased KINOMEscan
From the text: as §1

[13] = target: T13, panel of 442 kinases (Homo sapiens, UniProt P23458)
T13 construct: purchased KINOMEscan
From the text: as §1

[14] = target: T14, panel of 442 kinases (Homo sapiens, UniProt P27361)
T14 construct: purchased KINOMEscan
From the text: as §1

[15] = target: T15, panel of 442 kinases (Homo sapiens, UniProt P30530)
T15 construct: purchased KINOMEscan
From the text: as §1

[16] = target: T16, panel of 442 kinases (Homo sapiens, UniProt P31152)
T16 construct: purchased KINOMEscan
From the text: as §1

[17] = target: T17, panel of 442 kinases (Homo sapiens, UniProt P31751)
T17 construct: purchased KINOMEscan
From the text: as §1

[18] = target: T18, panel of 442 kinases (Homo sapiens, UniProt P32298)
T18 construct: purchased KINOMEscan
From the text: as §1

[19] = target: T19, panel of 442 kinases (Homo sapiens, UniProt P41743)
T19 construct: purchased KINOMEscan
From the text: as §1

[20] = target: T20, panel of 442 kinases (Homo sapiens, UniProt P49840)
T20 construct: purchased KINOMEscan
From the text: as §1

[21] = target: T21, panel of 442 kinases (Homo sapiens, UniProt P51957)
T21 construct: purchased KINOMEscan
From the text: as §1

[22] = target: T22, panel of 442 kinases (Homo sapiens, UniProt P52333)
T22 construct: purchased KINOMEscan
From the text: as §1

[23] = target: T23, panel of 442 kinases (Homo sapiens, UniProt P54646)
T23 construct: purchased KINOMEscan
From the text: as §1

[24] = target: T24, panel of 442 kinases (Homo sapiens, UniProt P68400)
T24 construct: purchased KINOMEscan
From the text: as §1

[25] = target: T25, panel of 442 kinases (Homo sapiens, UniProt Q00526)
T25 construct: purchased KINOMEscan
From the text: as §1

[26] = target: T26, panel of 442 kinases (Homo sapiens, UniProt Q04771)
T26 construct: purchased KINOMEscan
From the text: as §1

[27] = target: T27, panel of 442 kinases (Homo sapiens, UniProt Q04912)
T27 construct: purchased KINOMEscan
From the text: as §1

[28] = target: T28, panel of 442 kinases (Homo sapiens, UniProt Q07002)
T28 construct: purchased KINOMEscan
From the text: as §1

[29] = target: T29, panel of 442 kinases (Homo sapiens, UniProt Q13131)
T29 construct: purchased KINOMEscan
From the text: as §1

[30] = target: T30, panel of 442 kinases (Homo sapiens, UniProt Q13164)
T30 construct: purchased KINOMEscan
From the text: as §1

[31] = target: T31, panel of 442 kinases (Homo sapiens, UniProt Q13233)
T31 construct: purchased KINOMEscan
From the text: as §1

[32] = target: T32, panel of 442 kinases (Homo sapiens, UniProt Q13523)
T32 construct: purchased KINOMEscan
From the text: as §1

[33] = target: T33, panel of 442 kinases (Homo sapiens, UniProt Q14164)
T33 construct: purchased KINOMEscan
From the text: as §1

[34] = target: T34, panel of 442 kinases (Homo sapiens, UniProt Q15208)
T34 construct: purchased KINOMEscan
From the text: as §1

[35] = target: T35, panel of 442 kinases (Homo sapiens, UniProt Q16584)
T35 construct: purchased KINOMEscan
From the text: as §1

[36] = target: T36, panel of 442 kinases (Homo sapiens, UniProt Q16659)
T36 construct: purchased KINOMEscan
From the text: as §1

[37] = target: T37, panel of 442 kinases (Homo sapiens, UniProt Q8N752)
T37 construct: purchased KINOMEscan
From the text: as §1

[38] = target: T38, panel of 442 kinases (Homo sapiens, UniProt Q8NG66)
T38 construct: purchased KINOMEscan
From the text: as §1

[39] = target: T39, panel of 442 kinases (Homo sapiens, UniProt Q9UBF8)
T39 construct: purchased KINOMEscan
From the text: as §1

[40] = target: T40, panel of 442 kinases (Homo sapiens, UniProt Q9UQ88)
T40 construct: purchased KINOMEscan
From the text: as §1

[41] = target: T41, panel of 442 kinases (Homo sapiens, UniProt Q9Y2H1)
T41 construct: purchased KINOMEscan
From the text: as §1

[42] = target: T42, panel of 442 kinases (Homo sapiens, UniProt Q9Y6M4)
T42 construct: purchased KINOMEscan
From the text: as §1

## COc1cc(C(=O)N2CCC(N3CCN(C)CC3)CC2)ccc1Nc1ncc2c(n1)N1CCc3cccc(c31)C(=O)N2C [Compound 24]
[1]
  KINOMEscan: MKK7: 100
[2]
  KINOMEscan: p38-delta: 100
[3]
  KINOMEscan: DAPK3: 18
[4]
  KINOMEscan: JAK2(JH1domain-catalytic): 100
[5]
  KINOMEscan: RPS6KA4(Kin.Dom.1-N-terminal): 100
[6]
  KINOMEscan: ASK2: 100
[7]
  KINOMEscan: ABL1(E255K)-phosphorylated: 82
[8]
  KINOMEscan: RET: 100
[9]
  KINOMEscan: KIT(D816H): 100
[10]
  KINOMEscan: KIT(V559D,V654A): 100
[11]
  KINOMEscan: BRAF: 100
[12]
  KINOMEscan: ERBB3: 100
[13]
  KINOMEscan: JAK1(JH1domain-catalytic): 100
[14]
  KINOMEscan: ERK1: 94
[15]
  KINOMEscan: AXL: 100
[16]
  KINOMEscan: ERK4: 100
[17]
  KINOMEscan: AKT2: 100
[18]
  KINOMEscan: GRK4: 100
[19]
  KINOMEscan: PRKCI: 100
[20]
  KINOMEscan: GSK3A: 100
[21]
  KINOMEscan: NEK4: 100
[22]
  KINOMEscan: JAK3(JH1domain-catalytic): 100
[23]
  KINOMEscan: AMPK-alpha2: 89
[24]
  KINOMEscan: CSNK2A1: 75
[25]
  KINOMEscan: CDK3: 100
[26]
  KINOMEscan: ACVR1: 100
[27]
  KINOMEscan: MST1R: 100
[28]
  KINOMEscan: PCTK3: 100
[29]
  KINOMEscan: AMPK-alpha1: 80
[30]
  KINOMEscan: ERK5: 0.1
[31]
  KINOMEscan: MAP3K1: 100
[32]
  KINOMEscan: PRP4: 95
[33]
  KINOMEscan: IKK-epsilon: 100
[34]
  KINOMEscan: NDR1: 100
[35]
  KINOMEscan: MLK3: 92
[36]
  KINOMEscan: ERK3: 100
[37]
  KINOMEscan: CSNK1A1L: 100
[38]
  KINOMEscan: NEK11: 100
[39]
  KINOMEscan: PIK4CB: 100
[40]
  KINOMEscan: CDC2L2: 100
[41]
  KINOMEscan: NDR2: 100
[42]
  KINOMEscan: CSNK1G3: 86
